# Measured affinities in a library of Ab-95 light chain variants

Source: Engelhart et al. 2022 (doi:10.1038/s41597-022-01779-4), MIT Lincoln Laboratory and A-Alpha Bio; data file from the FLAb repository.

All variants were tested on one target, the spike HR2 peptide PDVDLGDISGINAS (SARS-CoV-2).

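The library (AAYL52) carries one to three amino acid substitutions per variant, with no insertions or deletions. AlphaSeq pools MATa yeast showing the antibodies with MATalpha yeast showing the peptide. Binding brings cells together so that they mate, and sequencing counts the barcode pairs among the diploids. A regression on co-assayed BCL2-family reference pairs converts the normalised counts of each replicate to an apparent Kd. Each pool was mated in three replicate cultures.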

Parent: Ab-95, a human scFv built as VH, a 15-residue (Gly4Ser)3 linker, VL. Only the CDRs of the light chain vary.
VH: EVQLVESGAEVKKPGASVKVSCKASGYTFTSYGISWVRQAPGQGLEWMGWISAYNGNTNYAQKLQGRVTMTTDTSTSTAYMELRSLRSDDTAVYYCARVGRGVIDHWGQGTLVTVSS
VL: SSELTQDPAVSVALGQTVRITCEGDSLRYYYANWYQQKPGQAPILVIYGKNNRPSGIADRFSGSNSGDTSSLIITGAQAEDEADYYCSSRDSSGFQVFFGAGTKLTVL

Substitutions are numbered in sequence along the VL above, starting at 1 (not Kabat).
This list gathers variants with a substitution at G49 (VL, numbered from residue 1).
Each Kd is an estimate from the mating assay, the geometric mean of the replicates in which the pair was seen; lower is stronger.
"no signal" means that the variant was in the library but no mating with the target was seen in any replicate; the authors take this as a sign of poor binding, and no number exists.
Three control strains display no target. For library AAYL52, 28% of the pairings with them gave a signal, with a median of 8.2 µM and one signal in twenty below 800 nM, so weak values seen in few replicates may be background. Also given: how often the same scFv was detected with the empty control strains.

With G24D/G49Y/R90K the result was no signal (0 of 3 replicates; controls 2 of 9). With D25P/G49C/R53K the result was no signal (0 of 3 replicates; controls 2 of 9). With G49C/R90D/Q96D the result was 7.6 µM (3 of 3 replicates; controls 2 of 9). For G49N/S89Q/R90W, the assay gave 2.9 µM (1 of 3 replicates; controls 1 of 9). For S26V/L27N/G49M, the assay gave 9.1 µM (2 of 3 replicates; controls 0 of 9). Variant S26F/R28F/G49M gave no signal (0 of 3 replicates; controls 1 of 9).

With L27A/G49S/Q96G the result was no signal (0 of 3 replicates; controls 2 of 9). Variant G49K/N52E gave 1.1 µM (3 of 3 replicates; controls 3 of 9). With L27G/A32E/G49S the result was no signal (0 of 3 replicates; controls 4 of 9). For G49N/R53G/R90A, the assay gave no signal (0 of 3 replicates; controls 4 of 9). Variant G49N/N51M/N52I gave 240 nM (3 of 3 replicates; controls 1 of 9). Variant L27F/G49M/R90N showed 38 µM (1 of 3 replicates; controls 1 of 9).

Variant Y30V/G49D/D91M showed 3.8 µM (1 of 3 replicates; controls 0 of 9). Variant D25E/G49N/G94A showed 2.5 µM (2 of 3 replicates; controls 1 of 9). For Y31I/G49D/R90K, the assay gave no signal (0 of 3 replicates; controls 0 of 9). Variant R28G/G49W/N52G gave 3.6 µM (3 of 3 replicates; controls 4 of 9). Variant A32C/G49C/S88D showed 9.7 µM (1 of 3 replicates; controls 2 of 9). With G24W/G49M/R90M the result was no signal (0 of 3 replicates; controls 7 of 9).

With E23F/G49F/S92M the result was no signal (0 of 3 replicates; controls 4 of 9). Variant G49Y/S88N/R90D showed 12 µM (2 of 3 replicates; controls 5 of 9). Variant R28L/G49P/S93K showed no signal (0 of 3 replicates; controls 1 of 9). With Y31L/G49P/S89L the result was 6.4 µM (2 of 3 replicates; controls 4 of 9). With G49E/K50E/S89G the result was 530 nM (3 of 3 replicates; controls 2 of 9). Variant D25Q/N33F/G49R showed 68 µM (1 of 3 replicates; controls 1 of 9).

Variant Y30C/G49V/K50N gave 6.1 µM (2 of 3 replicates; controls 2 of 9). With G49M/K50W the result was 5.2 µM (1 of 3 replicates; controls 6 of 9). With G49W/K50N/G94R the result was 3.2 µM (2 of 3 replicates; controls 3 of 9). Variant G49Y/Q96P/V97C gave 11 µM (2 of 3 replicates; controls 4 of 9). With R28A/A32N/G49T the result was 4.5 µM (2 of 3 replicates; controls 3 of 9). For N33K/G49D, the assay gave 34 µM (2 of 3 replicates; controls 2 of 9).

Variant G49H/S92Y/Q96W gave no signal (0 of 3 replicates; controls 4 of 9). Variant Y30P/G49H/S88V gave 3.9 µM (3 of 3 replicates; controls 1 of 9). Variant E23I/N33Q/G49Q gave 25 µM (3 of 3 replicates; controls 4 of 9). For R28V/G49D, the assay gave 1.6 µM (3 of 3 replicates; controls 2 of 9). For G49N/S55I/S93D, the assay gave 7.2 µM (3 of 3 replicates; controls 3 of 9). With R28M/G49L/S93D the result was no signal (0 of 3 replicates; controls 3 of 9).

Variant D25G/Y31D/G49L showed 4.1 µM (2 of 3 replicates; controls 1 of 9). Variant S26L/G49D/F95W gave 40 µM (2 of 3 replicates; controls 3 of 9). Variant G49K/S55W/S88W gave 8.3 µM (3 of 3 replicates; controls 0 of 9).

The first 3 entries again:

changes,Kd (apparent),detected,control signals
G24D/G49Y/R90K,no signal,0 of 3,2 of 9
D25P/G49C/R53K,no signal,0 of 3,2 of 9
G49C/R90D/Q96D,7.6 µM,3 of 3,2 of 9